Results as given in US20100184790A1, “PYRROLO[2,3-B]PYRIDINE COMPOUNDS, AZAINDOLE COMPOUNDS USED FOR SYNTHESIZING SAID PYRROLO[2,3-B]PYRIDINE COMPOUNDS, METHODS FOR THE PRODUCTION THEREOF, AND USES THEREOF” (CENTRE NATIONAL DE LA RECHERCHE SCIENTIFIQUE, priority 2007, published 2010).

Experiments:
CDK2/cyclin A = molecular target: T1, CDK2/cyclin A (Homo sapiens, UniProt P24941); assay: CDK2/cyclin A kinase assay; assay type: biochemical; conditions: 15 μM ATP, 30° C., histone H1; read-out: IC50 CDK2/cyclinA
T1 construct: made in house; host or cells: insect cells

SH-SY5Y cells = assay: Cell survival, MTS reduction, SH-SY5Y; assay type: cell-based; conditions: Homo sapiens, Table 2, exposed for 24 hours
Protocol: The human neuroblastoma cell line SH-SY5Y was grown in a DMEM medium with L-glutamine originating from Invitrogen (Cergy Pontoise, France), antibiotics and 10% by volume of FCS originating from Invitrogen. […] The procedure was such as described in detail in Ribas J. et al., 2004, “Cell differentiation, caspase inhibition, and macromolecular synthesis blockage, but not BCL-2 or BCL-XL proteins, protect SH-SYS5 cells from apoptosis triggered by two CDK inhibitory drugs”, Exp. […] These compounds were also tested at various concentrations with regard to their effects on SH-SY5Y and HEK293 cells. […] The IC50 values were calculated from the dose-response curves and are given in micromoles (mean±standard deviation of two independent measurements carried out in triplicate). […] The survival of the cells was estimated by the assaying of the degree of reduction of MTS induced by this exposure. […] The ICS© values were calculated from dose-response curves and are given in micromoles in table 3 below.

DYRK1A = DYRK1A (Rattus norvegicus, UniProt Q63470); assay: DYRK1A kinase assay (myelin basic protein); assay type: biochemical; conditions: 15 μM ATP, 30° C.

## CC(C)Oc1ccnc2[nH]cc(-c3ccnc(N)n3)c12 [Meriolin 6, 3-[(2-amino)pyrimidin-4-yl]-4-(1-methylethoxy)-1H-pyrrolo[2,3-b]pyridine]
CDK2/cyclin A
  IC50: 51 nM
SH-SY5Y cells
  IC50: 38 nM
DYRK1A
  IC50: 40 nM
